{"source": "patent US12012615B2", "about": "“Method of making induced pluripotent stem cells using p53 inhibitors” (Kyoto University, priority 2008, dated 2024)", "tested_on": "HDFs", "experiment": "Human iPS cell generation with MDM2 or RB shRNA co-transduction", "format": "cell-based", "conditions": "four or three reprogramming factors; retroviral vectors; n=4", "excerpt": "FIGS. 21A and 21B show effects of MDM2 co-transduction on iPS generation from HDFs by the four or three reprogramming factors. The retroviral vector expressing MDM2, p53 shRNA or RB shRNA, or control vector was transduced into HDFs together with the four factors (FIG. 21A) or three factors (FIG. 21B). Shown are the numbers of iPS colonies from 5×10^4 cells of HDF.\nThe effects of MDM2 that binds with and inhibits p53 were examined. Specifically, human MDM2 gene (SEQ ID NO:41) was co-introduced with the four or three reprogramming factors into HDFs using retroviral vectors, and iPS colonies were formed in the same manner as in Example 7 (n=4)."}
{"substance": "MDM2: human MDM2 gene (SEQ ID NO:41), binds with and inhibits p53, introduced by retroviral vector", "values": [{"measurement": "establishment efficiency of iPS cells", "value": "improved"}]}
